# Values joined by “and” are separate entries in the source; they are usually repeats but may differ in a detail not shown here. Equal values may be shown once. For part of these data: What follows is the remainder of the data, with few or none of the hits. Results filed as inconclusive are left out. The list shows a part of the results, in another mix than the full data. Some structures have more than one record in an assay (separate samples or runs), and their calls can disagree. Active and inactive are the calls of the source. Unless noted, the call rests on the fitted dose curve; in most records, active means well fitted curve in the direction sought with a large enough effect; inconclusive means small, poorly fitted or top-dose-only effect, or another doubt; inactive means no such curve, though single readings can be large; an effect the other way counts as inactive or inconclusive.
# Amino acid sequences for entries named in this document (tags omitted). A change or cut given only in a name is not applied to a line headed by its entry.
# UniProt Q03181: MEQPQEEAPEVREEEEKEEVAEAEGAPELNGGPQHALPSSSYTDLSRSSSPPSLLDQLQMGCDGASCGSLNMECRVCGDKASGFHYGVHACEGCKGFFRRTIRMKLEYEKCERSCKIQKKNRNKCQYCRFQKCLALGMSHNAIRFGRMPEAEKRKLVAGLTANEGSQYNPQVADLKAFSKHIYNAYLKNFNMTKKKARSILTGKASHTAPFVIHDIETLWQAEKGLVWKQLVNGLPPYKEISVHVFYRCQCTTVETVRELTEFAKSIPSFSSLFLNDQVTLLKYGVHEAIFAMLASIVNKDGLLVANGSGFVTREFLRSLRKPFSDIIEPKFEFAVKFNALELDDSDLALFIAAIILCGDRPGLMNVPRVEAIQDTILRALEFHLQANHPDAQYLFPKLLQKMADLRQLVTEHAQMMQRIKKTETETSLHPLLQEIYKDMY
# UniProt P21728, whole entry, looked up: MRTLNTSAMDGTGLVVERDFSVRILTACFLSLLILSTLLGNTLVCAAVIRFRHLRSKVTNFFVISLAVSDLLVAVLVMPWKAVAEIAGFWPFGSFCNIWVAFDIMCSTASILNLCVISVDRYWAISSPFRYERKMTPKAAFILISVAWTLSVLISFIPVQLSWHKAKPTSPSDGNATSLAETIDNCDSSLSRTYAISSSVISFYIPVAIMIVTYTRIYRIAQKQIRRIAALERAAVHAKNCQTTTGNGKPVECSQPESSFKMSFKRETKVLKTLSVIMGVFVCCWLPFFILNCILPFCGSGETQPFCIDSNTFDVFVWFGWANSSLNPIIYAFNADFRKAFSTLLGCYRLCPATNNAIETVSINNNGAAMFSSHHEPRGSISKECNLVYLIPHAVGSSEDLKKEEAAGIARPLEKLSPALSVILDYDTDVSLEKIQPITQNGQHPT
# UniProt O94782: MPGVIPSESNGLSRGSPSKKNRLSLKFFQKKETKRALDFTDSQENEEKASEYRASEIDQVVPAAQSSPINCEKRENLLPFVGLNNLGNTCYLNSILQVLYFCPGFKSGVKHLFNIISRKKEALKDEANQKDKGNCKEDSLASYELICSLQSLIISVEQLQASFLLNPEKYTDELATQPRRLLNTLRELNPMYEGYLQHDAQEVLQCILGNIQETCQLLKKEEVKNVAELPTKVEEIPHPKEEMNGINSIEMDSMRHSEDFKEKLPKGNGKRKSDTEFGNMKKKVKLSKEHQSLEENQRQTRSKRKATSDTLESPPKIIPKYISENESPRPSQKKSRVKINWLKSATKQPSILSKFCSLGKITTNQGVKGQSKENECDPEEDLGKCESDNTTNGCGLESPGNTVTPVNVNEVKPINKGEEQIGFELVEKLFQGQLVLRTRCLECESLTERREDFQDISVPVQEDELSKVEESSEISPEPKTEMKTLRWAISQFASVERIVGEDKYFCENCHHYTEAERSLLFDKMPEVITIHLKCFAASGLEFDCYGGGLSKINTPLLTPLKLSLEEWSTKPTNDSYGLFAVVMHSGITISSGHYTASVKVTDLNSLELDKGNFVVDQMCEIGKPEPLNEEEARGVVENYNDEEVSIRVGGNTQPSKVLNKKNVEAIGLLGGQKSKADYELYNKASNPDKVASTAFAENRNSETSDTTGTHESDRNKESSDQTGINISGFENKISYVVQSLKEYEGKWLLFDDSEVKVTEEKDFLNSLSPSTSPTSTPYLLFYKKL
# UniProt Q12809: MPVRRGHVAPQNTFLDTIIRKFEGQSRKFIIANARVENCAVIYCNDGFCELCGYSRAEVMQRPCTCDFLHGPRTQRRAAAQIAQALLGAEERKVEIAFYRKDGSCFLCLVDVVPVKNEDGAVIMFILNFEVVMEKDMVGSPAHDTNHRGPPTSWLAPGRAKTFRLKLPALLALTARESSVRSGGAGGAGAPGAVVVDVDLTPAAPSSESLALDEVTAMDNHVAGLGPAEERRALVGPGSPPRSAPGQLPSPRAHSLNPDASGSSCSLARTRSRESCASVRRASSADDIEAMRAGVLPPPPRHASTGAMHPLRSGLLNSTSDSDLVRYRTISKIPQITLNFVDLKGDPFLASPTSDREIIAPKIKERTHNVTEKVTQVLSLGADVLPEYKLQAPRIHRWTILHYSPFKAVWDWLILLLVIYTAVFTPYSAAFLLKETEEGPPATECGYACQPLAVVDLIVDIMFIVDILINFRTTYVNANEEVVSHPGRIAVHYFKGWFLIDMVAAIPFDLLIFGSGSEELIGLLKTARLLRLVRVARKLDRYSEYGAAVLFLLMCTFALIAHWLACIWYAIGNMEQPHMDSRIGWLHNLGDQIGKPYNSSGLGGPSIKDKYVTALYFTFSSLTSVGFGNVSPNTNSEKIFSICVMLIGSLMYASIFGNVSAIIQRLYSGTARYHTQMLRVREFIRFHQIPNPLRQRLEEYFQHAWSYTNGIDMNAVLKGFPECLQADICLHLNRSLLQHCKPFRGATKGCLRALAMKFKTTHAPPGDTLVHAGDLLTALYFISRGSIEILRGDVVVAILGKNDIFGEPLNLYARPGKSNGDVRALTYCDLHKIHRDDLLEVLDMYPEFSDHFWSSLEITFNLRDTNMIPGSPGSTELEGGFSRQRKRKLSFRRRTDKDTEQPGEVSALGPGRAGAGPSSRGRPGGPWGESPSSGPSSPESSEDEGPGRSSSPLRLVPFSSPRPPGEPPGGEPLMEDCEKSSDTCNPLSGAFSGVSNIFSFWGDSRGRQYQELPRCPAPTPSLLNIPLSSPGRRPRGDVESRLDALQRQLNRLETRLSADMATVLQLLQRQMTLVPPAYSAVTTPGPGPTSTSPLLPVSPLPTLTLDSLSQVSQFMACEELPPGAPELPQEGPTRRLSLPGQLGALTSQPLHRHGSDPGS
# UniProt O89049, whole entry, looked up: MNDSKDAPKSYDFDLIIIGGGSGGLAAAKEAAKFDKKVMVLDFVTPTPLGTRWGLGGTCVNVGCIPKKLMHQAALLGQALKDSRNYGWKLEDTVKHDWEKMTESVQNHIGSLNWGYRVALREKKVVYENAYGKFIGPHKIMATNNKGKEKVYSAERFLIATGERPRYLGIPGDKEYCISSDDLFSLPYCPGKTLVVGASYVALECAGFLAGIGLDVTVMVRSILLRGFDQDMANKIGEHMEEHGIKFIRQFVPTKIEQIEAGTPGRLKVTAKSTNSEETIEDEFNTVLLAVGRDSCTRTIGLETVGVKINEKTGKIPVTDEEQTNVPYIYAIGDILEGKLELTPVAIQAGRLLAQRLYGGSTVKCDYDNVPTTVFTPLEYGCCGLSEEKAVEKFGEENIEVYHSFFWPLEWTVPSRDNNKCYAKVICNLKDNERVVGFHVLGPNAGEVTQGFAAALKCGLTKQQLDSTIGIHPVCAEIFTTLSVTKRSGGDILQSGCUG
# UniProt P11712, whole entry, looked up: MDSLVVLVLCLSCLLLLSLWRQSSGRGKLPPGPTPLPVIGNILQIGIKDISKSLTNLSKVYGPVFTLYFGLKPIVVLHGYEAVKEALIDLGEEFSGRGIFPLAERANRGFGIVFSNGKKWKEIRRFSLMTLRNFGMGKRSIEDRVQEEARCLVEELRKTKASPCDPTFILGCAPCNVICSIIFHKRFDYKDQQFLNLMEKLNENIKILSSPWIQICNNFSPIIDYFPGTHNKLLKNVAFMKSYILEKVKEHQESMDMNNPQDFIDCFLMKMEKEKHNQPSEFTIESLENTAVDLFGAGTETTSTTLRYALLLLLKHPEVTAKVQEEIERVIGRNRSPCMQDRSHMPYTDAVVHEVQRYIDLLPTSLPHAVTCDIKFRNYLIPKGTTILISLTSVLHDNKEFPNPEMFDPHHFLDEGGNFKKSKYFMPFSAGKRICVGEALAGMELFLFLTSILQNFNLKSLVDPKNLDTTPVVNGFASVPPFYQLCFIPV
# UniProt P10635, whole entry, looked up: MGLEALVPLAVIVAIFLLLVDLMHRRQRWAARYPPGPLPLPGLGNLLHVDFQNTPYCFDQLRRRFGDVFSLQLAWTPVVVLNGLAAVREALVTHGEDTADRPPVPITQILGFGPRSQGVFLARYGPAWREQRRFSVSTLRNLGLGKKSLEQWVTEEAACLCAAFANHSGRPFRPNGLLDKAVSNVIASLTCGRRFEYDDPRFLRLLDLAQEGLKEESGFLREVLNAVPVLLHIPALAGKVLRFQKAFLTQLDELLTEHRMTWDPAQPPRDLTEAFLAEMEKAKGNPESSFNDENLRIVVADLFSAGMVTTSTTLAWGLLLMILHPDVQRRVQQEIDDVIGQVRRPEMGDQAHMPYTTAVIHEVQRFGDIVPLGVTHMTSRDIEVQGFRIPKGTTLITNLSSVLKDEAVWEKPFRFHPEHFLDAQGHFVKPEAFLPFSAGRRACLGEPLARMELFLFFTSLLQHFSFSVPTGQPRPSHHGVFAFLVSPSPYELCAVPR
# UniProt P33261, whole entry, looked up: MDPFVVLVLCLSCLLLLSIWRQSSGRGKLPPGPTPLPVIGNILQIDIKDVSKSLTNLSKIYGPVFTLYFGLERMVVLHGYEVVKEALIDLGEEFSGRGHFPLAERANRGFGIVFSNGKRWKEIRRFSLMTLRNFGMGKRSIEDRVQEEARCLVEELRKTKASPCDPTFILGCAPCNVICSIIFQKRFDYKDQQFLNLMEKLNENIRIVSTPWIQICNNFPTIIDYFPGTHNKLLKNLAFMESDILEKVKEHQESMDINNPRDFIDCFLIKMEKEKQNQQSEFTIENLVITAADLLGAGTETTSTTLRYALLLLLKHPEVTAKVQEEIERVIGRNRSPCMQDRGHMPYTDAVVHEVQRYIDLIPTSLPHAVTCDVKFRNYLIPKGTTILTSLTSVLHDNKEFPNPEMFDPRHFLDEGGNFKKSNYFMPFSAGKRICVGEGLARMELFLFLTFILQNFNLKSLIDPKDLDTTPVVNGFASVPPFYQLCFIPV
# UniProt P08482: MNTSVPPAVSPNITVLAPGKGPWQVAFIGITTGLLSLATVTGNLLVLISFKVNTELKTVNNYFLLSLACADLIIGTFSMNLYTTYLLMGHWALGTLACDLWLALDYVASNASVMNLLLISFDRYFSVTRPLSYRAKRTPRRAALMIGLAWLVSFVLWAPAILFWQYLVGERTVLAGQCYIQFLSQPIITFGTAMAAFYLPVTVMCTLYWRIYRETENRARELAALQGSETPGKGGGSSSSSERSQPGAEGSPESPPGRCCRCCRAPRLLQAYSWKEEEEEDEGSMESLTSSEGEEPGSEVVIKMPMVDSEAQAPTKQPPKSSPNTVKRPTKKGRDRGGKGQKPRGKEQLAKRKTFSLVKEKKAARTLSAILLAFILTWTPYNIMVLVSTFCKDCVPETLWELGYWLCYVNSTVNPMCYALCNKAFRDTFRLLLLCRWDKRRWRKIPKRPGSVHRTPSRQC
# UniProt P19793: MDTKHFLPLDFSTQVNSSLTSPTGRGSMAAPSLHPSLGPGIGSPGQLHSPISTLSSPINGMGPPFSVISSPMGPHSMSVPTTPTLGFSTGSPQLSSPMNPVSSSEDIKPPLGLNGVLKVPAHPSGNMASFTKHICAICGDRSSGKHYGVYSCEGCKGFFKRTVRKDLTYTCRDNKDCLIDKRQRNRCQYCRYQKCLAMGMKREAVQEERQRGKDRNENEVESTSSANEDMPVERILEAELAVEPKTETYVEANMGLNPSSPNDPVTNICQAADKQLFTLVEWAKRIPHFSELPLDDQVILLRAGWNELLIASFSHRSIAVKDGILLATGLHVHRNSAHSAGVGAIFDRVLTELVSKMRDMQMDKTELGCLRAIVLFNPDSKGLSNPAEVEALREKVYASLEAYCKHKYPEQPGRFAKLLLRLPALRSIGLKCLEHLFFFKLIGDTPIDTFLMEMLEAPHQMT
# UniProt P05177, whole entry, looked up: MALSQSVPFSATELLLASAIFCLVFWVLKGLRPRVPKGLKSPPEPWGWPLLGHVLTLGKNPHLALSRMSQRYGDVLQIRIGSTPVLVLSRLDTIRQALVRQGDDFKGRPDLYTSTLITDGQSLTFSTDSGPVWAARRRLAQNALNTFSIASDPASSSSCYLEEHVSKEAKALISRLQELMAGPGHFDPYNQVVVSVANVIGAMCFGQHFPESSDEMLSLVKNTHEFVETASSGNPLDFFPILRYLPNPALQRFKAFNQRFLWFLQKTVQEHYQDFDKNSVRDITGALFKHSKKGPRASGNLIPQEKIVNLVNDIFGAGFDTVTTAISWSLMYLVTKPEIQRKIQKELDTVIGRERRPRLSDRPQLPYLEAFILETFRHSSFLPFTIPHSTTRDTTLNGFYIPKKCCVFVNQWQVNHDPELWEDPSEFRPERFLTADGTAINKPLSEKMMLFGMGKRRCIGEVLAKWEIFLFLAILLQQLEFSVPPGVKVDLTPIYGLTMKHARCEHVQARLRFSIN
# What was measured:
# [1] = target: Peroxisome proliferator-activated receptor delta (Homo sapiens) (UniProt Q03181); test: qHTS assay for small molecule agonists of peroxisome proliferator-activated receptor delta signaling (AID 588534; calls by dose curve;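 further: 0% = DMSO basal wells and 100% = positive control agonist at 10 µM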); conditions: HEK293T PPARdelta-UAS-bla, beta-lactamase ratio, 18 h; at 76.7 µM (top of the series)
# [2] = target: D(1A) dopamine receptor (Homo sapiens) (UniProt P21728); test: HTS Assay for Allosteric Agonists of the Human D1 Dopamine Receptor: Primary Screen for Potentiators (AID 488982); conditions: HEK293 T-REx D1 inducible cells, calcium flux, kinetic fluorescence; at 8.37 µM (top of the series); further: 0% is about no effect
# Outline: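 Tetracycline-induced HEK293 T-REx cells force-coupled to calcium signalling were incubated overnight at 30 C and dye-loaded at room temperature. Calcium flux over 180 s after compound addition flagged agonists; a further 180 s read after EC20 dopamine flagged potentiators.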
# [3] = target: D(1A) dopamine receptor (Homo sapiens) (UniProt P21728); test: HTS Assay for Allosteric Agonists of the Human D1 Dopamine Receptor: Primary Screen for Antagonists (AID 488983); conditions: D1 receptor cell assay, antagonist mode, qHTS titration;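 further: calcium flux response to an EC80 dopamine challenge measured with no-wash dye; potency means the concentration at half of the fitted maximal effect; nearly all actives have a fitted effect of over 65% in size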
# Outline: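 Tetracycline-induced HEK293 T-REx D1 line, force-coupled to calcium flux, read with no-wash calcium dye. Compound added after 10 s baseline, read 180 s for agonism, then EC80 dopamine added and read a further 180 s.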
# [4] = target: Ubiquitin carboxyl-terminal hydrolase 1 (Homo sapiens) (UniProt O94782); test: Inhibitors of USP1/UAF1: Pilot qHTS (AID 504865); conditions: purified USP1/UAF1, Ub-rhodamine cleavage fluorescence;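 further: rhodamine fluorescence freed from ubiquitin-rhodamine substrate followed over time; top concentration of the series differs between compounds; on the % scale 0 is the no-effect control and ±100 the full control effect; nearly all actives have a fitted effect of over 35% in size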
# Outline: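 USP1/UAF1 complex (1nM) preincubated with compound 15 min at room temperature, then Ub-Rho substrate (150nM final) added. Fluorescence read kinetically at 480/540 nm, 6 reads every 60 seconds. Buffer: 50mM HEPES pH 7.8, 0.5mM EDTA, 0.1 mg/ml BSA, 1mM TCEP, 0.01% Tween-20.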
# [5] = target: Voltage-gated inwardly rectifying potassium channel KCNH2 (Homo sapiens) (UniProt Q12809); test: qHTS Assay for Small Molecule Inhibitors of the Human hERG Channel Activity (AID 588834); conditions: U2OS BacMam hERG, FluxOR thallium flux fluorescence;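 further: potency means the concentration at half of the fitted maximal effect; lower thallium flux fluorescence means stronger hERG block; nearly all actives have a fitted effect of over 50% in size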
# [6] = target: Thioredoxin reductase 1, cytoplasmic (Rattus norvegicus) (UniProt O89049); test: qHTS Assay for Inhibitors of Mammalian Selenoprotein Thioredoxin Reductase 1 (TrxR1) (AID 488773); conditions: purified TrxR1 enzyme activity; at 57.1 µM (top of the series);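 further: drop in NADPH fluorescence over an 8 min run after selenite addition; on the % scale 0 is the no-effect control and ±100 the full control effect; nearly all actives have a fitted effect of over 40% in size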
# Outline: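 Steps: enzyme (90 nM) plus NADPH (400 uM final), 5 min at ~22 deg C; compound added, 15 min; selenite (400 uM final) added; fluorescence followed for 8 min. Concentration-response curves derived from the normalized delta values.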
# [7] = target: Cytochrome P450 2C9 (Homo sapiens) (UniProt P11712); test: qHTS Assay for Inhibitors and Substrates of Cytochrome P450 2C9 (AID 883); conditions: recombinant CYP2C9, luciferin-H luminescence, 60 min; at 57.1 µM (top of the series) unless noted; further: on the % scale 0 is the no-effect control and ±100 the full control effect; nearly all actives have a fitted effect of over 60% in size
# [8] = target: Cytochrome P450 2D6 (Homo sapiens) (UniProt P10635); test: qHTS Assay for Inhibitors and Substrates of Cytochrome P450 2D6 (AID 891);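 further: luciferin methyl ether substrate demethylated by CYP2D6 with NADPH regeneration; on the % scale 0 is the no-effect control and ±100 the full control effect; nearly all actives have a fitted effect of over 60% in size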
# [9] = target: Cytochrome P450 2C19 (Homo sapiens) (UniProt P33261); test: qHTS Assay for Inhibitors and Substrates of Cytochrome P450 2C19 (AID 899); further: on the % scale 0 is the no-effect control and ±100 the full control effect; nearly all actives have a fitted effect of over 60% in size
# [10] = target: Muscarinic acetylcholine receptor M1 (Rattus norvegicus) (UniProt P08482); test: qHTS Assay for Antagonists of Acetylcholine Muscarinic M1 Receptor: Kinetic Measurement of Intracellular Calcium Response (AID 943); conditions: M1-expressing cells, kinetic intracellular calcium fluorescence; further: potency means the concentration at half of the fitted maximal effect; nearly all actives have a fitted effect of over 75% in size
# Outline: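 CHO cells expressing rat M1 receptor, Fluo-4 loaded, preincubated 10 min with compound, then stimulated with EC80 carbachol (100 nM final). Kinetic calcium fluorescence over 4 min; response taken as peak over basal signal.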
# [11] = target: Muscarinic acetylcholine receptor M1 (Rattus norvegicus) (UniProt P08482); test: qHTS Assay for Antagonists of Acetylcholine Muscarinic M1 Receptor: Measurement of IP-One Response (AID 944); conditions: CHO-M1 cells, IP-One HTRF, antagonist mode; further: potency means the concentration at half of the fitted maximal effect; nearly all actives have a fitted effect of over 75% in size
# Outline: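 CHO cells stably expressing rat M1, pretreated 10 min with compound, then stimulated 30 min with carbachol at EC80 (200 nM) in LiCl-containing buffer pH 7.4; IP1 accumulation read by HTRF competition (665/620 nm).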
# [12] = qHTS assay for small molecule agonists of retinoid X receptor alpha signaling (AID 588544; calls by dose curve;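 on activation: 0% = DMSO basal wells and 100% = reference agonist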); conditions: HEK293T RXRa-UAS-bla, beta-lactamase reporter, 18 h; 530 nm emission
# [13] = target: Retinoic acid receptor RXR-alpha (Homo sapiens) (UniProt P19793); test: as above; conditions: HEK293T RXRa-UAS-bla, beta-lactamase reporter, 18 h; at 76.7 µM (top of the series)
# [14] = qHTS assay for small molecule antagonists of retinoid X receptor alpha signaling (AID 588546; active means well fitted inhibition curve with a large enough effect in the signal ratio, with a control signal flat, not every such curve was filed as active; the % refers to the signal ratio;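 further: cells stimulated with 9-cis-retinoic acid as agonist; on the % scale 0 is the no-effect control and ±100 the full control effect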); conditions: HEK293T RXRa-UAS-bla, beta-lactamase ratio, antagonist mode; measured here: W530 green channel, cytotoxicity proxy
# Outline: (§1)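 Beta-lactamase reporter inhibition, read as CCF4 fluorescence ratio (ex 405, em 460/530 nm) after 2 h at RT. HEK293T UAS-bla cells, 2500/well, were stimulated with 9-cis-RA at 500 or 100 nM final alongside test compound for 18 h at 37 C.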
# [15] = target: Retinoic acid receptor RXR-alpha (Homo sapiens) (UniProt P19793); test: as above; conditions: HEK293T RXRa-UAS-bla, beta-lactamase ratio, antagonist mode
# Outline: as §1
# [16] = target: Cytochrome P450 1A2 (Homo sapiens) (UniProt P05177); test: p450-cyp1a2 (AID 410; calls by dose curve;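 further: -100% = full effect of reference inhibitor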); conditions: recombinant CYP1A2, luciferin-ME demethylation, luminescence; at 25.6 µM (top of the series)
# Outline: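 20nM CYP1A2 with 100uM Luciferin-ME (at Km) in 100mM KPO4; compound preincubated 10 min, NADPH regeneration added, 60 min at room temperature. Luciferin quantified by luminescence after detection reagent; normalized to 57 uM furafylline.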
structure (smiles),measurement,setting,value
CC1=C(/C=C/C(C)=C/C=C/C(C)=C/C(=O)O)C(C)(C)CCC1,activation,[1],inactive: 0.171%
CN1CCN(CCCN2c3ccccc3Sc3ccc(C(F)(F)F)cc32)CC1,"activity, positive = potentiation",[2],inactive: -80.8%
same,Potency,[3],active: 0.891 µM
CN1CCCN=C1/C=C\c1cccs1,"activity change, negative = inhibition",[4]; at 54.9 µM (top of the series),inactive: -10.4%
O[C@@H](c1cc(C(F)(F)F)nc2c(C(F)(F)F)cccc12)[C@H]1CCCCN1,Potency,[5],active: 10 µM
COc1ccc([C@@H]2Sc3ccccc3N(CCN(C)C)C(=O)[C@@H]2OC(C)=O)cc1,"activity change, negative = inhibition",[6],inactive: 20.2%
CCCCc1oc2ccccc2c1C(=O)c1cc(I)c(OCCN(CC)CC)c(I)c1,"activity change, negative = inhibition",[4]; at 54.9 µM (top of the series),inactive: -0.63%
same,"activity change, negative = inhibition",[4]; at 114 µM (top of the series),inactive: -18.3%
O=C(O)CCCC[C@@H]1SC[C@H]2NC(=O)N[C@H]12,"activity change, negative = inhibition",[7],inactive: 0.505%
same,Potency,[8],inactive
same,Potency,[9],inactive
COc1ccccc1CNCCCCCCNCCCCCCCCNCCCCCCNCc1ccccc1OC,Potency,[10],active: 0.891 µM
same,Potency,[11],active: 3.55 µM
CN1CCC[C@H]1c1cccnc1,max response,[12],-20.5% and 7.93%
same,activation,[13],inactive: 7.07% and inactive: 11.3%
same,max response,[14],-12.1% and 0.794%
same,max response,[15],inactive: 0.416% and inactive: -24.7%
CC1=C(/C=C/C(C)=C/C=C/C(C)=C\C(=O)O)C(C)(C)CCC1,activation,[1],inactive: 5.66%
Nc1ccc(S(=O)(=O)Nc2ccnn2-c2ccccc2)cc1,Potency,[8],inactive
O=C(O)CCCC[C@H]1SC[C@H]2NC(=O)N[C@@H]21,"activity change, negative = inhibition",[16],inactive: 15.5%
same,"activity change, negative = inhibition",[7],inactive: 0.821% [at 25.6 µM]
same,Potency,[8],inactive
same,Potency,[9],inactive
CN1CCCCC1CCN1c2ccccc2Sc2ccc(S(C)=O)cc21 (centres undefined),Potency,[5],active: 8.91 µM

# From PubChem BioAssay (NCATS)
